## CycPeptMPDB entries from one study

Collected by the curators of CycPeptMPDB (Li et al. 2023) from Townsend et al. 2020, doi:10.26434/chemrxiv.13335941.v1.

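The data file gives no further conditions (lipid, pH, time, direction or concentration), and values from different papers need not be comparable. Other peptides of the study may be missing here. Peptides that the database sets to -10, its floor, are left out.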

PAMPA is the parallel artificial membrane permeability assay, which has no cells and reads passive diffusion.
P is given in units of 10^-6 cm/s (from log10 values with two decimals); larger means faster passage.

* CCCN1CC(=O)N[C@H](CC(C)C)C(=O)N(Cc2ccccc2)CC(=O)N2CCC[C@@H]2C(=O)N[C@@H](CC(C)C)C(=O)N[C@@H](Cc2ccccc2)C1=O: PAMPA 1.7 × 10^-6 cm/s
* CC(C)C[C@@H]1NC(=O)[C@@H](C)N(C)C(=O)[C@@H]2CCCN2C(=O)[C@H](Cc2ccccc2)NC(=O)CN(Cc2ccccc2)C(=O)[C@H]2CCCN2C(=O)CN(Cc2ccccc2)C1=O: PAMPA 1.2 × 10^-6 cm/s
* CC(C)C[C@@H]1C(=O)N[C@@H](Cc2ccccc2)C(=O)N2CCC[C@@H]2C(=O)N(C)[C@@H](C)C(=O)N(Cc2ccccc2)CC(=O)N[C@@H](Cc2ccccc2)CC(=O)N2CCC[C@@H]2C(=O)N1C: PAMPA 1.4 × 10^-6 cm/s
* CC(C)C[C@@H]1C(=O)N[C@@H](Cc2ccccc2)C(=O)N2CCC[C@H]2C(=O)N(C)[C@H](C)C(=O)N(Cc2ccccc2)CC(=O)N[C@H](CC(C)C)C(=O)N2CCC[C@@H]2C(=O)N1C: PAMPA 5.8 × 10^-6 cm/s
* CC(C)C[C@@H]1C(=O)N[C@@H](Cc2ccccc2)C(=O)N2CCC[C@@H]2C(=O)N[C@H](C)C(=O)N(C)[C@@H](CC(C)C)C(=O)N(C)[C@H](CC(C)C)C(=O)N2CCC[C@@H]2C(=O)N1C: PAMPA 2.5 × 10^-6 cm/s
* CC(C)C[C@@H]1C(=O)N[C@@H](Cc2ccccc2)C(=O)N2CCC[C@H]2C(=O)N[C@@H](C)C(=O)N(C)[C@@H](CC(C)C)C(=O)N(Cc2ccccc2)CC(=O)N2CCC[C@@H]2C(=O)N1C: PAMPA 1.1 × 10^-6 cm/s
* CC(C)C[C@@H]1C(=O)N[C@H](CC(C)C)C(=O)N2CCC[C@@H]2C(=O)N(Cc2ccccc2)CC(=O)N[C@@H](Cc2ccccc2)C(=O)N2CCC[C@H]2C(=O)N[C@@H](C)C(=O)N1C: PAMPA 1.1 × 10^-6 cm/s
* CC(C)C[C@H]1NC(=O)[C@H](C)NC(=O)[C@@H]2CCCN2C(=O)[C@H](Cc2ccccc2)NC(=O)CN(Cc2ccccc2)C(=O)[C@@H]2CCCN2C(=O)[C@@H](CC(C)C)NC1=O: PAMPA 2.2 × 10^-6 cm/s
* CC(C)C[C@@H]1C(=O)N[C@@H](Cc2ccccc2)C(=O)N2CCC[C@@H]2C(=O)N[C@@H](Cc2ccccc2)CC(=O)N[C@H](CC(C)C)C(=O)N(C)[C@@H](CC(C)C)C(=O)N2CCC[C@@H]2C(=O)N1C: PAMPA 5.5 × 10^-6 cm/s
* CC(C)C[C@@H]1NC(=O)C[C@H](Cc2ccccc2)NC(=O)[C@H](Cc2ccccc2)NC(=O)[C@H](CC(C)C)NC(=O)[C@@H]2CCCN2C(=O)[C@H](CC(C)C)NC1=O: PAMPA 0.34 × 10^-6 cm/s
* CC(C)C[C@@H]1NC(=O)C[C@H](Cc2ccccc2)NC(=O)[C@H](Cc2ccccc2)NC(=O)[C@H](CC(C)C)N(C)C(=O)[C@H]2CCCN2C(=O)C[C@H](Cc2ccccc2)NC1=O: PAMPA 4.3 × 10^-6 cm/s
* CC(C)C[C@@H]1NC(=O)[C@H](CC(C)C)N(C)C(=O)[C@@H](C)N(C)C(=O)[C@@H]2CCCN2C(=O)[C@H](Cc2ccccc2)NC(=O)[C@H](CC(C)C)N(C)C(=O)[C@@H]2CCCN2C1=O: PAMPA 4.2 × 10^-6 cm/s
* CC(C)C[C@@H]1NC(=O)[C@H](C)NC(=O)[C@@H]2CCCN2C(=O)[C@H](Cc2ccccc2)NC(=O)CN(Cc2ccccc2)C(=O)[C@@H]2CCCN2C(=O)[C@@H](CC(C)C)NC1=O: PAMPA 0.78 × 10^-6 cm/s
* CC(C)C[C@@H]1NC(=O)[C@H]2CCCN2C(=O)[C@@H](CC(C)C)N(C)C(=O)[C@H](CC(C)C)NC(=O)[C@H](C)N(C)C(=O)[C@H]2CCCN2C(=O)[C@H](Cc2ccccc2)NC1=O: PAMPA 1.9 × 10^-6 cm/s
* CC(C)C[C@@H]1C(=O)N[C@@H](Cc2ccccc2)CC(=O)N2CCC[C@@H]2C(=O)N[C@H](CC(C)C)C(=O)N[C@@H](Cc2ccccc2)C(=O)N(C)[C@H](C)C(=O)N1C: PAMPA 2.2 × 10^-6 cm/s
* CC(C)C[C@@H]1C(=O)N[C@@H](Cc2ccccc2)C(=O)N2CCC[C@@H]2C(=O)N[C@@H](Cc2ccccc2)CC(=O)N(C)[C@@H](CC(C)C)C(=O)N(Cc2ccccc2)CC(=O)N2CCC[C@@H]2C(=O)N1C: PAMPA 3.7 × 10^-6 cm/s
* CC(C)C[C@@H]1NC(=O)[C@H](C)NC(=O)[C@H](Cc2ccccc2)NC(=O)[C@@H](CC(C)C)NC(=O)[C@H]2CCCN2C(=O)C[C@H](Cc2ccccc2)NC1=O: PAMPA 3.2 × 10^-6 cm/s
* CC(C)C[C@@H]1NC(=O)[C@H](C)NC(=O)[C@H](Cc2ccccc2)NC(=O)[C@H](CC(C)C)N(C)C(=O)[C@@H]2CCCN2C(=O)CN(Cc2ccccc2)C1=O: PAMPA 1.3 × 10^-6 cm/s
* CC(C)C[C@@H]1NC(=O)[C@@H]2CCCN2C(=O)CN(Cc2ccccc2)C(=O)[C@@H](CC(C)C)NC(=O)[C@@H](C)N(C)C(=O)[C@@H]2CCCN2C(=O)[C@H](Cc2ccccc2)NC1=O: PAMPA 0.36 × 10^-6 cm/s
* CC(C)C[C@@H]1C(=O)N2CCC[C@@H]2C(=O)N(Cc2ccccc2)CC(=O)N[C@@H](Cc2ccccc2)C(=O)N2CCC[C@@H]2C(=O)N[C@@H](C)C(=O)N[C@H](CC(C)C)C(=O)N1C: PAMPA 0.69 × 10^-6 cm/s
* CC(C)C[C@H]1NC(=O)[C@H](C)NC(=O)[C@H](Cc2ccccc2)NC(=O)CN(Cc2ccccc2)C(=O)[C@@H]2CCCN2C(=O)CN(Cc2ccccc2)C1=O: PAMPA 0.39 × 10^-6 cm/s
* CC(C)C[C@H]1NC(=O)[C@@H](C)NC(=O)[C@H]2CCCN2C(=O)[C@H](Cc2ccccc2)NC(=O)CN(Cc2ccccc2)C(=O)[C@H]2CCCN2C(=O)CN(Cc2ccccc2)C1=O: PAMPA 0.42 × 10^-6 cm/s
* CC(C)C[C@@H]1C(=O)N(C)[C@@H](CC(C)C)C(=O)N2CCC[C@H]2C(=O)N(C)[C@@H](CC(C)C)C(=O)N[C@@H](Cc2ccccc2)C(=O)N2CCC[C@@H]2C(=O)N[C@@H](C)C(=O)N1C: PAMPA 0.93 × 10^-6 cm/s
* CC(C)C[C@@H]1C(=O)N[C@@H](Cc2ccccc2)C(=O)N2CCC[C@H]2C(=O)N(C)[C@@H](C)C(=O)N(C)[C@@H](CC(C)C)C(=O)N[C@@H](Cc2ccccc2)CC(=O)N2CCC[C@H]2C(=O)N1C: PAMPA 1.8 × 10^-6 cm/s